In patent US20260382619A1:
Where two headings read alike, the source gives them in different places.

What was measured:
[1] = system: canine kidney cells (MDCK cell line); assay: cytotoxicity (LPAIV example); conditions: read-out: cytotoxicity CC50; LPAIV example (Table 3)
[2] = system: RNaseL; conditions: PAM cell line, 12 hours
[3] = system: monkey kidney cells (Vero cell line); assay: cytotoxicity (CDV example); conditions: read-out: cytotoxicity CC50; CDV example (Table 6)
[4] = system: monkey kidney cells (Vero cell line); assay: cytotoxicity (CAV example); conditions: read-out: cytotoxicity CC50; CAV example (Table 5)
[5] = system: feline kidney cells (CRFK cell line); assay: cytotoxicity (FCV example); conditions: read-out: cytotoxicity CC50; FCV example (Table 8)
[6] = system: feline kidney cells (CRFK cell line); assay: cytotoxicity (FPV example); conditions: read-out: cytotoxicity CC50; FPV example (Table 7)
[7] = system: Mx1; conditions: PAM cell line, 12 hours
[8] = system: ISG15; conditions: PAM cell line, 12 hours
[9] = system: canine fibroblasts (A-72 cell line); assay: cytotoxicity (CCoV example); conditions: read-out: cytotoxicity CC50; CCoV example (Table 4)
[10] = system: feline fetal cells (FCWF-4 cell line); assay: cytotoxicity (FIPV example); conditions: read-out: cytotoxicity CC50; FIPV example (Table 9)

Row | SMILES | CC50 [1] [mM] | RNaseL expression value (2^−ΔΔCt), Fold change (multiple increase compared to control group) ([2]; 400 uM) | CC50 [3] [mM] | CC50 [4] [mM] | CC50 [5] [mM] | CC50 [6] [mM] | Mx1 expression value (2^−ΔΔCt), Fold change (multiple increase compared to control group) ([7]; 400 uM) | ISG15 expression value (2^−ΔΔCt), Fold change (multiple increase compared to control group) ([8]; 400 uM) | CC50 [9] [mM] | CC50 [10] [mM] | RNaseL expression value (2^−ΔΔCt), Fold change (multiple increase compared to control group) ([2]; 4000 uM) | Mx1 expression value (2^−ΔΔCt), Fold change (multiple increase compared to control group) ([7]; 4000 uM) | ISG15 expression value (2^−ΔΔCt), Fold change (multiple increase compared to control group) ([8]; 4000 uM)
1 | Nc1nc2c(ncn2[C@@H](C=O)O[C@@H](C=O)CO)c(=O)[nH]1 | > 6 | 2.5 (±0.1) Fold change | > 6 | > 6 | > 6 | > 6 | 3.5 (±0.7) Fold change | 4.7 (±0.3) Fold change | > 6 | > 6 |  |  | 
2 | O=C[C@@H](CO)O[C@H](C=O)n1cnc2c(=O)[nH]cnc21 | > 10 | 3.0 (±0.2) Fold change | > 10 | > 10 | > 10 | > 10 | 3.5 (±1.1) Fold change | 4.0 (±0.6) Fold change | > 10 | > 10 |  |  | 
3 | O=C[C@@H](CO)O[C@H](C=O)n1cnc2c(=O)[nH]c(=O)[nH]c21 | > 10 | 3.4 (±0.2) Fold change | > 10 | > 10 | > 8 | > 8 | 3.5 (±1.0) Fold change | 4.5 (±0.4) Fold change | > 10 | > 10 |  |  | 
4 | Nc1nc2c(ncn2[C@@H](CO)OC(CO)CO)c(=O)[nH]1 | > 10 |  | > 10 | > 10 | > 10 | > 10 |  |  | > 10 | > 10 | 3.0 (±0.8) Fold change | 4.0 (±1.2) Fold change | 4.2 (±1.5) Fold change
5 | O=c1[nH]cnc2c1ncn2[C@@H](CO)OC(CO)CO | > 10 |  | > 10 | > 10 | > 10 | > 10 |  |  | > 10 | > 10 | 2.0 (±0.3) Fold change | 2.8 (±0.9) Fold change | 6.3 (±0.4) Fold change
6 | O=c1[nH]c(=O)c2ncn([C@@H](CO)OC(CO)CO)c2[nH]1 | > 10 |  | > 10 | > 10 | > 10 | > 10 |  |  | > 10 | > 10 | 1.7 (±0.3) Fold change | 2.7 (±1.4) Fold change | 4.7 (±1.3) Fold change
